Earlier results, collected in patent publication US7964349B2, “Method to determine responsiveness of cancer to epidermal growth factor receptor targeting treatments” (The General Hospital Corporation, priority 2004, dated 2011).

Tested on: non-small cell lung cancer (NSCLC)
Conditions: published literature; cited from earlier work

Structure (SMILES): COc1cc2ncnc(Nc3ccc(F)c(Cl)c3)c2cc1OCCCN1CCOCC1 [Gefitinib]
- individuals with a somatic EGFR mutation responsive to gefitinib: 11/11
